Apparent affinities of Ab-14 variants for a coronavirus HR2 peptide

The measurements come from Li et al. 2023 (doi:10.1038/s41467-023-39022-2) through the FLAb antibody collection.

Antigen: PDVDLGDISGINAS, a 14-residue peptide of the SARS-CoV-2 spike HR2 region.

Parent: Ab-14, a human scFv built as VH, the linker GGGGSGGGGSGGGGS, VL. Only the CDRs of the light chain vary.
VH: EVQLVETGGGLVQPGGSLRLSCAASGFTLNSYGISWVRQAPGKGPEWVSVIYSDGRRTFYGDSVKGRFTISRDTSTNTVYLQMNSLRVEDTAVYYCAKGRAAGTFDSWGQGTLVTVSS
VL: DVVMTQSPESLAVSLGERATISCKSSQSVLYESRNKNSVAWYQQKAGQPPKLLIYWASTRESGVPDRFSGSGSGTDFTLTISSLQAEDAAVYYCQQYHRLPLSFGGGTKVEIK

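The parent was found by panning a naive human phage display library on the peptide. These sequences belong to a second round, designed from the earlier measurements on random variants of the parent. Their group label is 14L_En_HC (En: ensemble of fine-tuned language models; HC: hill climbing; a sequence that several methods proposed may carry one label only). The assay is AlphaSeq: two haploid yeast populations carry antibody and antigen on their surface. Binding brings cells together so that they mate, and sequencing counts the barcode pairs among the diploids. Scores were corrected for input abundance and mapped to Kd with protein pairs of known affinity run in the same pool. The assay was run in six technical replicates.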

Each variant is given by its three light chain CDRs, as the data file delimits them; those of the parent are KSSQSVLYESRNKNSVA, WASTRES, QQYHRLPLS.
Values are log10 of the apparent Kd in nM; lower means stronger binding.
A mean of the replicates is given; it leaves out those without a signal.
An entry "nd" has no value in the source: the pair was not observed among the diploids in that replicate. This suggests poor binding but is not conclusive.
Empty control strains, which show no peptide, gave a signal in 4% of pairings with all light chain designs; the median was 2.64 and 95% of these signals were weaker than 1.59. No background was subtracted. Also given: how often the same scFv was detected with the empty control strains, with their mean in brackets.
Values of this round are not directly comparable with the first-round values of the same sequences.
Of ten entries with the parent sequence, four were seen in most replicates (averages 0.34 to 2.37), three in one and three in none, so single entries are noisy.
The authors' rule: three or more of the six replicates give a measured affinity, fewer mean a poor binder.

| CDR-L1 | CDR-L2 | CDR-L3 | replicates, log10 nM | log10 Kd (nM), mean | signal with controls |
|---|---|---|---|---|---|
| KLSQVTRYESRNKNSIA | EMVTREK | QQYDRLPLS | 1.56 / 1.55 / 1.50 / 0.90 / 1.33 / 2.20 | 1.51 | 0/18 |
| TIGQVMNWESRNQNSVA | QTSTREE | QDYDRLPLS | 1.27 / 1.01 / 1.12 / 1.25 / 0.76 / 1.81 | 1.20 | 2/18 (2.10) |
| KLYQSMGYLSHNKNSIA | DMSRREN | QQYHRLPLS | 1.32 / 1.62 / 1.29 / 2.81 / 1.06 / 1.98 | 1.68 | 0/18 |
| HISMMVGTKGYAKNSVA | NAETRED | QQYHRLPLS | 0.10 / 0.13 / 0.04 / 0.22 / 0.16 / 0.10 | 0.13 | 1/18 (2.31) |
| KLSQFYRMESRNKNSVA | DNSTRER | QQYDRLPLS | 0.91 / 0.95 / 0.80 / 0.69 / 0.82 / 0.98 | 0.86 | 4/18 (3.11) |
| KILGVTNGISKNKNSVA | EQSTRES | QQYNRLPLS | 0.76 / 0.18 / 0.22 / 0.19 / 0.12 / 0.39 | 0.31 | 0/18 |
| KISFNTLIESKNLNSVA | EMTNREY | QDYDRLPLS | 1.36 / 1.14 / 0.96 / 0.93 / 1.33 / 1.56 | 1.21 | 0/18 |
| KLYQNVGTMAHNKQSIA | DMERRED | QQYHRLPLS | 0.70 / 0.27 / 0.27 / 0.54 / 0.20 / 0.45 | 0.41 | 2/18 (2.43) |
| KLRQMTGYESRNKDSIA | DNSTRGR | QQYHRLPLS | nd / nd / nd / 2.17 / nd / nd | 2.17 | 0/18 |
| TISTSMRYESSLKNAIA | NAQTREE | QQYHRLPIS | -0.09 / 0.17 / 0.18 / 0.55 / 0.43 / 0.89 | 0.35 | 1/18 (1.69) |
| KLYMSTGYESRNKDSIA | DNSTRGR | QQYDRLPLS | nd / 1.35 / 1.38 / nd / 1.10 / nd | 1.28 | 0/18 |
| NFRQMVLYGSTLKNSVA | HASTREE | QQYHRLPLI | 1.47 / 0.58 / 3.29 / 1.65 / 0.78 / 2.35 | 1.68 | 2/18 (2.22) |
| ILSDTVMQGSYYRNSVA | QESTRAD | QQYHRLPLS | 0.69 / 0.35 / 0.75 / 0.51 / 0.61 / 1.02 | 0.65 | 0/18 |
| TIGQSVHETSRMKNSVA | HASTRED | QQYDRLPLS | 1.89 / 1.94 / 0.95 / 1.03 / 1.50 / 2.28 | 1.60 | 2/18 (1.88) |
| KISASVNYEMVNGQSVA | QMSTREE | QQYDRLPLS | 1.23 / 0.74 / 0.81 / 0.57 / 1.04 / 1.13 | 0.92 | 4/18 (2.57) |
| TISGMANYESTNKNSVA | ELTTRGN | QQYERLPLS | 1.35 / 1.38 / 1.16 / 1.30 / 1.77 / 1.91 | 1.48 | 1/18 (2.46) |
| SLAESAHLETRDKNSVA | DNTTRES | QHYDRLPLS | nd / 2.78 / 2.60 / nd / nd / nd | 2.69 | 2/18 (2.92) |
| NLMQVGGYESNVHNSIA | DLRTRES | QQYHRLPLS | 0.01 / -0.32 / -0.01 / -0.08 / -0.08 / -0.02 | -0.08 | 0/18 |
| KISQMYRYEQQNSSSIA | EANTREQ | QSYYRLPLS | 2.74 / nd / 2.52 / 2.42 / nd / 2.92 | 2.65 | 0/18 |
| TIGPMLATESRNKNSVA | GMQTRES | QQYHRLPLS | 0.20 / 0.10 / -0.34 / -0.34 / 0.21 / 0.22 | 0.01 | 1/18 (2.14) |
| TVSQVHGMLSHNKNSVA | DMNTRGQ | QQYDRLPLS | 0.64 / 0.77 / 0.78 / 0.40 / 0.38 / 0.58 | 0.59 | 0/18 |
| HISQMMMYGSCNKNNVA | QVSLRGE | QQYHRLPLS | 0.52 / 0.26 / 0.37 / 0.31 / 0.59 / 0.42 | 0.41 | 1/18 (2.80) |
| KISQVFMMTGKLANSVA | NAYTRVQ | QQYHRLPLS | 0.23 / 0.08 / -0.19 / -0.19 / 0.09 / 0.34 | 0.06 | 1/18 (2.14) |
| KLSDYVGGESRNKSSLA | DNSTRES | QQYHRLPLS | nd / 2.17 / 1.61 / 2.79 / 2.19 / 3.76 | 2.50 | 0/18 |
| KLLQEVTGRSQERNSVA | HNSTRED | QQYDRLPLI | 2.44 / 2.21 / 2.10 / 2.92 / 3.21 / 2.21 | 2.52 | 1/18 (3.46) |
| KLSQVTHSESRNKNSIA | EMVTREH | QQYDRLPLS | 1.91 / 1.87 / 1.83 / 1.12 / 1.23 / 2.13 | 1.68 | 1/18 (3.61) |
| HISMMVGTKGYNKNSVA | NAEERED | QQYHRLPLS | -0.12 / 0.00 / -0.20 / 0.00 / 0.22 / -0.01 | -0.02 | 0/18 |
| KISMLQRFQSDAKNNIA | EMSRREE | QQYHRLPLS | -0.16 / 0.16 / -0.02 / 0.15 / 0.03 / -0.04 | 0.02 | 1/18 (2.43) |
| KISMATTFESRNKNSVA | ENSTRES | QSYHRLPLS | 1.93 / 2.22 / 2.10 / 2.31 / 2.17 / 3.19 | 2.32 | 4/18 (3.05) |
| MISDLTMYGSRNKNSVA | DLSTRGS | QQYHHLPLS | -0.05 / -0.02 / -0.04 / -0.14 / -0.19 / -0.03 | -0.08 | 0/18 |
| KISQMYRYLQQNESSIA | EANTREQ | QSYHRLPLS | nd / nd / nd / nd / nd / nd | nd | 0/18 |
| TLTQVNGMESHNKDNVA | DLSTRGN | QQYHRLPLS | 0.44 / 0.45 / 0.07 / 0.34 / 0.40 / 0.55 | 0.37 | 0/18 |
| HVSESVFAQSKMKNSVA | ENSTRES | QQYDRLPLS | nd / 2.13 / 2.50 / 2.73 / 1.05 / 1.71 | 2.03 | 0/18 |
| KLSQVTHSEHKLKNSIA | EMVTREK | QQYDRLPLS | 1.14 / 0.71 / 0.69 / 0.43 / 0.83 / 1.14 | 0.82 | 1/18 (2.81) |
| KISMSYRYESQEKNSIA | EMTTREE | QSYHRLPLA | 2.12 / 2.28 / 1.09 / 1.28 / 1.06 / 2.31 | 1.69 | 0/18 |
| KIYQSVMETSRNKNNVA | EVSTLPD | QQYHRLPLS | 0.06 / -0.15 / -0.14 / -0.03 / 0.04 / 0.31 | 0.02 | 1/18 (1.71) |
| KCSQNVLIMGRNKNNVA | EMTTREE | QQYDRLPLS | 0.15 / -0.19 / -0.09 / -0.06 / -0.05 / 0.10 | -0.02 | 0/18 |
| KLYMSTGYESRMKDSIA | DNSTRGR | QQYHRLPLS | 1.18 / 0.99 / 1.04 / 1.31 / 1.41 / 1.10 | 1.17 | 2/18 (3.94) |
| TISNSFMMENQFRNSVA | QASTRES | QCYDRLPLS | 1.42 / 0.65 / 0.97 / 0.52 / 1.26 / 0.69 | 0.92 | 2/18 (1.63) |
| KISMSYRYESQAKNSIA | EMSRREN | QQYHRLPLS | 0.83 / 0.45 / 0.77 / 0.11 / 0.22 / 0.37 | 0.46 | 2/18 (2.26) |
| MLSELVKMGSRNTNSVA | DNSTRGS | QQYDRLPLS | 0.37 / 0.90 / 1.13 / 1.37 / 0.47 / 0.76 | 0.83 | 1/18 (1.79) |
| HLTQSVDLESVHKNSIA | DLMTRES | QQYHRLPLS | 0.26 / -0.04 / 0.04 / -0.11 / -0.08 / 0.29 | 0.06 | 1/18 (2.91) |
| HLSTSVDLESVHKNSIA | DLMTRES | QQYHRLPLS | 0.04 / 0.05 / 0.07 / -0.18 / -0.19 / -0.09 | -0.05 | 4/18 (3.19) |
| IITQSVMSESKNKRNVA | NTSERED | QQYDRLPLI | 0.72 / 1.18 / 1.17 / 1.23 / 1.47 / 1.52 | 1.21 | 1/18 (2.88) |
| KLGSSTRFESNNKASIA | DNSTRES | QQYHRLPLS | 1.05 / 0.48 / 0.68 / 0.57 / 0.51 / 0.52 | 0.64 | 0/18 |
| KLSQFYRMESRKKNSVA | DNSTRES | QQYDRLPLS | nd / 1.50 / 0.99 / 1.62 / 1.82 / 1.23 | 1.43 | 0/18 |
| KLSATYRYESQNKNSIA | EMTTRMS | QCYHRLPLS | nd / nd / 1.94 / nd / nd / nd | 1.94 | 0/18 |
| KIGHGLTTESRNRNSVA | QTETRVD | QHYHRLPLS | 2.23 / 1.84 / 2.18 / 1.92 / 1.93 / 1.82 | 1.99 | 3/18 (3.51) |
| KLTQSVNYLSRVMNSVA | DNSTREA | QQYFRLPLS | -0.09 / 0.16 / -0.21 / -0.10 / -0.13 / 0.32 | -0.01 | 2/18 (2.15) |
| KISQTVLYQGRLWNAVA | QMSTREN | QQYDRLPLS | nd / nd / nd / nd / nd / nd | nd | 0/18 |

The first 2 variants above that were never detected:

| CDR-L1 | CDR-L2 | CDR-L3 | replicates, log10 nM | log10 Kd (nM), mean | signal with controls |
|---|---|---|---|---|---|
| KISQMYRYLQQNESSIA | EANTREQ | QSYHRLPLS | nd / nd / nd / nd / nd / nd | nd | 0/18 |
| KISQTVLYQGRLWNAVA | QMSTREN | QQYDRLPLS | nd / nd / nd / nd / nd / nd | nd | 0/18 |